Data from PubChem BioAssay AID624037 (The Scripps Research Institute Molecular Screening Center, 2012).
The list shows a part of the results, in another mix than the full data. Active and inactive are the calls of the source.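 The calls were made as follows: active = activation above the run's mean over test compounds plus 3 SD (cut at about 23% in these data); inactive = the rest.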

By UniProt entry, the sequences of proteins in these tests, tags left out.
UniProt P08912, whole entry, looked up: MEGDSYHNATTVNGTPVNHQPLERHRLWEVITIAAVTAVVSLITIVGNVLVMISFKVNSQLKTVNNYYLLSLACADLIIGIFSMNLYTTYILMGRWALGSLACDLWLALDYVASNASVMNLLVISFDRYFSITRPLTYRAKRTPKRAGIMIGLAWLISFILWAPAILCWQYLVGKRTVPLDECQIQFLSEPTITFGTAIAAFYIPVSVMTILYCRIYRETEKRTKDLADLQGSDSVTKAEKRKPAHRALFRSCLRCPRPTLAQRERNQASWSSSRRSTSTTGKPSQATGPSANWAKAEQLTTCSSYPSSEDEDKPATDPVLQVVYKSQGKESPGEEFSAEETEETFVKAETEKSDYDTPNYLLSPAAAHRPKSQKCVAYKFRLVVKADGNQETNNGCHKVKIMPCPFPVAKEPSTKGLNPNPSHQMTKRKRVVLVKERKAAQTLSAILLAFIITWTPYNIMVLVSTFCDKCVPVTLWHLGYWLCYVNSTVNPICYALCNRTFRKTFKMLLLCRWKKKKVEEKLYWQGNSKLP

What follows are molecules tested against Muscarinic acetylcholine receptor M5 (Homo sapiens) (UniProt P08912) (assay: human M5 muscarinic receptor agonists, primary screen, CHO-K1 cells, Fluo-8 calcium fluorescence (AID 624037;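 also: signal is peak over basal fluorescence ratio across the kinetic read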)). Conditions: CHO-K1 hM5 cells, at 3 µM, hits give high values, 0% DMSO wells, 100% maximal acetylcholine response.

| SMILES | activation |
| --- | --- |
| O=C(COc1ccccc1)OC1CN2CCC1CC2 (stereo unspecified) | inactive: -11.4% |
| O=C(Nc1ccncc1[N+](=O)[O-])c1ccc([N+](=O)[O-])cc1[N+](=O)[O-] | inactive: 0.79% |
| O=C(O)C(=O)c1ccc(N(CCCl)CCCl)cc1 | inactive: -2.14% |
| COP1(=S)c2c(C)nn(CCC#N)c2N=C(c2ccc(F)cc2)N1C (stereo unspecified) | inactive: -0.66% |
| COC(=O)C1(C)COP(=O)(N2CCCC2)OC1 (stereo unspecified) | inactive: 1.8% |
| CCC(C)N(CC(C)C)C(=S)SC(NC(C)=O)C(Cl)(Cl)Cl (stereo unspecified) | inactive: -8.04% |
| CCOC(=O)c1ccc(NC(=O)C(C)(CCl)SC)cc1 (stereo unspecified) | inactive: 1.04% |
| O=C(OC1CN2CCC1CC2)c1cccc([N+](=O)[O-])c1 (stereo unspecified) | inactive: -6.17% |
| CSc1ccc(Nc2c([N+](=O)[O-])cc([N+](=O)[O-])cc2[N+](=O)[O-])cc1 | inactive: 4.27% |
| Cc1cc(SC(NC(=O)c2ccccc2)C(Cl)(Cl)Cl)nc(C(C)C)n1 (stereo unspecified) | inactive: -1.66% |
| COP(=O)(OC)N1CC1c1ccccc1 (stereo unspecified) | inactive: -1.71% |
| CC1CCNP(=O)(N(CCCl)CCCl)O1 (stereo unspecified) | inactive: 0.94% |
| C/C=C1/CC(C)C(C)(O)C(=O)OCC2CCN3CCC(OC1=O)C23 (stereo unspecified) | inactive: -10.2% |
| CCOC(=O)Nc1ccc([As](=O)(O)O)c(O)c1 | inactive: -3.29% |
| O=C(O)C(O)c1ccc(N(CCCl)CCCl)cc1 (stereo unspecified) | inactive: 2.27% |
| O=[N+]([O-])c1ccc(Nc2ccc(Oc3ccc([N+](=O)[O-])cc3[N+](=O)[O-])cc2)c([N+](=O)[O-])c1 | inactive: -2.47% |
| O=P(Nc1ccccn1)(c1cccc2ccccc12)c1cccc2ccccc12 | inactive: 3.28% |
| Cc1cc(SC(NC=O)C(Cl)(Cl)Cl)ncn1 (stereo unspecified) | inactive: 3.41% |
| CCOC(=O)Nc1cccc([As](=O)(O)O)c1 | inactive: -1.86% |
| Cc1ccc2nc3c(c(C)c2c1)CC(C(Cl)Cl)S3 (stereo unspecified) | inactive: -4.95% |
| [N-]=[N+]=NC1CCCCC1NC(=O)c1cc([N+](=O)[O-])cc([N+](=O)[O-])c1 (stereo unspecified) | inactive: 0.88% |
| Cc1ccc(OP(=O)(Nc2ccc([N+](=O)[O-])cn2)Oc2ccc(C)cc2)cc1 | inactive: -1.73% |
| CC(Cc1ccc(O)cc1)NCC(O)c1cc(O)cc(O)c1 (stereo unspecified) | inactive: -0.07% |
| O=[As](O)(c1ccc(O)cc1)c1ccccc1O | inactive: -1.49% |
| C[As](=O)(O)c1cccc(C(=O)O)c1 | inactive: 0.66% |
| O=[N+]([O-])c1ccc(-c2cc([N+](=O)[O-])c(O)c([N+](=O)[O-])c2)cc1 | inactive: 1.07% |
